Data taken from PubChem BioAssay AID602283 (Johns Hopkins Ion Channel Center, 2012).
The entries are a selection whose mix differs from that of the whole data set. Some of these compounds have results that are not shown, active ones among them. Calls of active or inactive are those of the source.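 Rule for the calls: active = inhibition exceeding 3 SD of buffer-only control wells (cut at about 26% in these data); inactive = the rest.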

Test: carbachol calcium response changes in non-induced cells, primary screen, counter-screen for RGS4 activator project, cell-based, HEK293 M3R, non-induced RGS4, Fluo-4 calcium (AID 602283);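 note: percent drop in integrated peak-minus-baseline over baseline Fluo4 ratio after carbachol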
Details: HEK293 M3R non-induced RGS4, Fluo4 calcium flux; at 10 µM; stronger effect = higher value; after carbachol challenge at its EC90

Structure (SMILES) | inhibition
CN(C)C1CCCC1OC(=O)C(O)(c1ccccc1)c1ccccc1 (stereo not drawn) | active: 67.8%
C=CCN1CCN(CCOC(=O)C(O)(c2ccccc2)c2ccccc2)CC1 | active: 74.3%
CCN(CC)CC(C)C(C)OC(=O)C(O)(c1ccccc1)c1ccccc1 (stereo not drawn) | active: 88.8%
